{
  "source": "ChEMBL document CHEMBL4627260",
  "about": "“Optimisation of estrogen receptor subtype-selectivity of a 4-Aryl-4H-chromene scaffold previously identified by virtual screening” (Bioorg Med Chem, 2020)",
  "data": [
    {"species": "Homo sapiens", "assay": "Selectivity ratio of IC50 for displacement of fluorescent estrogen ligand from recombinant human full length untagged ERbeta expressed in baculovirus infected insect cells to IC50 for displacement of fluorescent estrogen ligand from recombinant human full length untagged ERalpha expressed in baculovirus infected insect cells", "values": [
      {"smiles": "COC(=O)C1=C(N)Oc2cc(O)ccc2C1c1ccccc1", "note": "(stereo not drawn)", "Ratio IC50": 0.48},
      {"smiles": "COC(=O)C1=C(N)Oc2cc(O)ccc2C1c1ccc(OCCN2CCCC2)cc1", "note": "(stereo not drawn)", "Ratio IC50": 14.3},
      {"smiles": "CCCCOC(=O)C1=C(N)Oc2cc(O)ccc2C1c1ccc(OCCN2CCCC2)cc1", "note": "(stereo not drawn)", "Ratio IC50": 353},
      {"smiles": "CC(C)(C)OC(=O)C1=C(N)Oc2cc(O)ccc2C1c1ccc(OCCN2CCCC2)cc1", "note": "(stereo not drawn)", "Ratio IC50": 49.5},
      {"smiles": "CC(C)(C)OC(=O)C1=C(N)Oc2cc(O)ccc2C1c1ccc(OCCN2CCCCC2)cc1", "note": "(stereo not drawn)", "Ratio IC50": 3.93},
      {"smiles": "CCOC(=O)C1=C(N)Oc2cc(O)ccc2C1c1ccccc1", "note": "(stereo not drawn)", "Ratio IC50": 0.26},
      {"smiles": "COC(=O)C1=C(N)Oc2cc(O)ccc2C1c1ccc(O)cc1", "note": "(stereo not drawn)", "Ratio IC50": 12.7},
      {"smiles": "CCOC(=O)C1=C(N)Oc2cc(O)ccc2C1c1ccc(OCCN2CCCC2)cc1", "note": "(stereo not drawn)", "Ratio IC50": 2.21},
      {"smiles": "N#CC1=C(N)Oc2cc(O)ccc2C1c1ccc(OCCN2CCCC2)cc1", "note": "(stereo not drawn)", "Ratio IC50": 11.2},
      {"smiles": "N#CC1=C(N)Oc2cc(O)ccc2C1c1ccc(OCCN2CCOCC2)cc1", "note": "(stereo not drawn)", "Ratio IC50": 3.58},
      {"smiles": "CCOC(=O)C1=C(N)Oc2cc(O)ccc2C1c1ccc(OCCN2CCCCC2)cc1", "note": "(stereo not drawn)", "Ratio IC50": 2.56},
      {"smiles": "CCOC(=O)C1=C(N)Oc2cc(O)ccc2C1c1ccc(OCCN2CCOCC2)cc1", "note": "(stereo not drawn)", "Ratio IC50": 11},
      {"smiles": "COC(=O)C1=C(N)Oc2cc(O)ccc2C1c1ccc(OCCN2CCOCC2)cc1", "note": "(stereo not drawn)", "Ratio IC50": 0.0054},
      {"smiles": "COC(=O)C1=C(N)Oc2cc(O)ccc2C1c1ccc(OCCN2CCCCC2)cc1", "note": "(stereo not drawn)", "Ratio IC50": 4.77},
      {"smiles": "N#CC1=C(N)Oc2cc(O)ccc2C1c1ccc(OCCN2CCCCC2)cc1", "note": "(stereo not drawn)", "Ratio IC50": 7.1},
      {"smiles": "CCCCOC(=O)C1=C(N)Oc2cc(O)ccc2C1c1ccc(OCCN2CCCCC2)cc1", "note": "(stereo not drawn)", "Ratio IC50": 87.3},
      {"smiles": "N#CC1=C(N)Oc2cc(O)ccc2C1c1ccccc1", "note": "(stereo not drawn)", "Ratio IC50": 0.84}
    ]},
    {"species": "Homo sapiens", "assay": "Selectivity ratio of IC50 for displacement of fluorescent estrogen ligand from recombinant human full length untagged ERalpha expressed in baculovirus infected insect cells to IC50 for displacement of fluorescent estrogen ligand from recombinant human full length untagged ERbeta expressed in baculovirus infected insect cells", "values": [
      {"smiles": "COC(=O)C1=C(N)Oc2cc(O)ccc2C1c1ccc(OCCN2CCOCC2)cc1", "note": "(stereo not drawn)", "Ratio IC50": 170}
    ]}
  ]
}
